Data from patent US20130333715A1, “SHAMPOO COMPOSITIONS AND METHODS OF MAKING SAME” (The Procter & Gamble Company, priority 2012, published 2013).

Columns and labels:
[1] = Calculated conditional stability constants for chelants with Cu^+2 at specified pH; format: physicochemical
Description: (§1) However, as the pH range of the present compositions are acidic (i.e., less than 7), the log alpha value (αm) is considered to be constant and approximately negligible.
(§2) The calculated stability constants for a range of chelants with Fe^+3, Cu^+2, and Ca^+2 are given below in Table 3: […]

[2] = Calculated conditional stability constants for chelants with Ca^+2 at specified pH; format: physicochemical
Description: as §1, §2

[3] = Calculated conditional stability constants for chelants with Fe^+3 at specified pH
Description: The gradual change in ligand species as pH changes can be represented using alpha (α) coefficients, defined as: [formula] […] By combining stability (K) and alpha (α) constants at a given pH, the formula below provides the effective chelating power of a chelant.

[4] = 1:1 complex, fully deprotonated chelant, 25° C., 0.1M ionic strength; cited from earlier work

ethylenediamine-N,N′-bis(2-hydroxyphenylacetic acid) [EDDHA (EHPG)]
log Conditional Stability Constant (@ pH) Cu^+2 ([1]; pH 2): −3.10
log Conditional Stability Constant (@ pH) Cu^+2 ([1]; pH 3): 0.90
log Conditional Stability Constant (@ pH) Cu^+2 ([1]; pH 4): 4.90
log Conditional Stability Constant (@ pH) Cu^+2 ([1]; pH 5): 8.88
log Conditional Stability Constant (@ pH) Cu^+2 ([1]; pH 6): 12.72
log Conditional Stability Constant (@ pH) Cu^+2 ([1]; pH 7): 16.11
log Conditional Stability Constant (@ pH) Cu^+2 ([1]; pH 8): 19.07
log Conditional Stability Constant (@ pH) Ca^+2 ([2]; pH 2): −21.20
log Conditional Stability Constant (@ pH) Ca^+2 ([2]; pH 3): −17.20
log Conditional Stability Constant (@ pH) Ca^+2 ([2]; pH 4): −13.20
log Conditional Stability Constant (@ pH) Ca^+2 ([2]; pH 5): −9.22
log Conditional Stability Constant (@ pH) Ca^+2 ([2]; pH 6): −5.38
log Conditional Stability Constant (@ pH) Ca^+2 ([2]; pH 7): −1.99
log Conditional Stability Constant (@ pH) Ca^+2 ([2]; pH 8): 0.97
log Conditional Stability Constant (@ pH) Fe^+3 ([3]; pH 2): 7.10
log Conditional Stability Constant (@ pH) Fe^+3 ([3]; pH 3): 11.10
log Conditional Stability Constant (@ pH) Fe^+3 ([3]; pH 4): 15.10
log Conditional Stability Constant (@ pH) Fe^+3 ([3]; pH 5): 19.08
log Conditional Stability Constant (@ pH) Fe^+3 ([3]; pH 6): 22.92
log Conditional Stability Constant (@ pH) Fe^+3 ([3]; pH 7): 26.31
log Conditional Stability Constant (@ pH) Fe^+3 ([3]; pH 8): 29.27
log K Fe [4]: 35.5
